This note sets out measurements from ChEMBL document CHEMBL1128693, “Novel cytotoxic 3'-(tert-butyl) 3'-dephenyl analogs of paclitaxel and docetaxel” (J Med Chem, 1995).

This test in a line: Ratio of ED50 in microtubule assembly in presence of paclitaxel to only compound. Type of test: functional. In a few lines:
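Bovine brain tubulin purified by three temperature-dependent assembly-disassembly cycles plus phosphocellulose-biogel P-10 chromatography, cleared at 27000g for 10 min. Varied compound levels incubated with 10 μM tubulin and 0.5 mM GTP in PEM buffer (0.1 M Pipes pH 6.9, 1 mM MgSO₄, 1 mM EGTA), 37 °C, 15 min. Spun at 40000g for 4 min; supernatant protein by Bradford. ED50 = concentration giving 50% protein retained in supernatant. Ratio against paclitaxel ED50.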
As for `CC(=O)O[C@@]12CO[C@@H]1C[C@H](O)[C@@]1(C)C(=O)[C@H](O)C3=C(C)[C@@H](OC(=O)[C@H](O)[C@@H](NC(=O)CC(C)(C)C)C(C)(C)C)C[C@@](O)([C@@H](OC(=O)c4ccccc4)[C@H]21)C3(C)C`, the Ratio turned out to be 0.48.

In the case of `CC(=O)O[C@@]12CO[C@@H]1C[C@H](O)[C@@]1(C)C(=O)[C@H](O)C3=C(C)[C@@H](OC(=O)[C@H](O)[C@@H](NC(=O)OC(C)(C)C)C(C)(C)C)C[C@@](O)([C@@H](OC(=O)c4ccccc4)[C@H]21)C3(C)C`, the Ratio worked out at 0.38.

With `CCC(C)(C)OC(=O)N[C@H]([C@@H](O)C(=O)O[C@H]1C[C@@]2(O)[C@@H](OC(=O)c3ccccc3)[C@@H]3[C@]4(OC(C)=O)CO[C@@H]4C[C@H](O)[C@@]3(C)C(=O)[C@H](O)C(=C1C)C2(C)C)C(C)(C)C`, the Ratio was 0.45.

As for `CC(=O)O[C@@]12CO[C@@H]1C[C@H](O)[C@@]1(C)C(=O)[C@H](O)C3=C(C)[C@@H](OC(=O)[C@H](O)[C@@H](NC(=O)c4ccccc4)C(C)(C)C)C[C@@](O)([C@@H](OC(=O)c4ccccc4)[C@H]21)C3(C)C`, the Ratio came out at 1.8.

`CCCCOC(=O)N[C@H]([C@@H](O)C(=O)O[C@H]1C[C@@]2(O)[C@@H](OC(=O)c3ccccc3)[C@@H]3[C@]4(OC(C)=O)CO[C@@H]4C[C@H](O)[C@@]3(C)C(=O)[C@H](O)C(=C1C)C2(C)C)C(C)(C)C`: the Ratio amounted to 0.86.

`CC(=O)O[C@@]12CO[C@@H]1C[C@H](O)[C@@]1(C)C(=O)[C@H](O)C3=C(C)[C@@H](OC(=O)[C@H](O)[C@@H](NC(=O)Nc4ccccc4)C(C)(C)C)C[C@@](O)([C@@H](OC(=O)c4ccccc4)[C@H]21)C3(C)C`: the Ratio was determined as 0.32.

Consider `CC(=O)O[C@@]12CO[C@@H]1C[C@H](O)[C@@]1(C)C(=O)[C@H](O)C3=C(C)[C@@H](OC(=O)[C@H](O)[C@@H](NC(=O)OCC(C)C)C(C)(C)C)C[C@@](O)([C@@H](OC(=O)c4ccccc4)[C@H]21)C3(C)C`, for which the Ratio was 0.54.

In the case of `CC(=O)O[C@@]12CO[C@@H]1C[C@H](O)[C@@]1(C)C(=O)[C@H](O)C3=C(C)[C@@H](OC(=O)[C@H](O)[C@@H](NC(=O)NC(C)(C)C)C(C)(C)C)C[C@@](O)([C@@H](OC(=O)c4ccccc4)[C@H]21)C3(C)C`, the Ratio turned out to be 0.6.
